Values quoted from earlier work in patent US8426345B2, “Method of drug design” (Alchemia Limited, priority 2005, dated 2013).

Chains of the proteins cited; added tags and fusions are not shown. Lines headed by an entry give the natural chain unless they say otherwise; changes in a name come on top.
UniProt P35346: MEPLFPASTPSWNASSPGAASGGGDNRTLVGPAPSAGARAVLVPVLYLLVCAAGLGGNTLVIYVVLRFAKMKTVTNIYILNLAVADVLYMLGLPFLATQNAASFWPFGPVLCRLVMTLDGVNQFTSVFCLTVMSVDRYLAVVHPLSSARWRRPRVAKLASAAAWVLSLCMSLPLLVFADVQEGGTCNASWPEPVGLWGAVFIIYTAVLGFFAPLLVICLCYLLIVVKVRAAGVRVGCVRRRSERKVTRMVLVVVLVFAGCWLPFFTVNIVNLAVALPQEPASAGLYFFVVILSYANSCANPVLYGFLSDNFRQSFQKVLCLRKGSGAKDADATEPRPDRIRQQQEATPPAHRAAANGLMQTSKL

Target: T1, Human SST5 somatostatin receptor (Homo sapiens, UniProt P35346)
T1 construct: expressed in transfected cells; host or cells: HEK-293 EBNA cells (membranes)
Settings: human SST5 receptor membranes from HEK-293 EBNA cells; receptor preparation data; read-out: Kd for [125I]SST-14 Binding; cited from earlier work

Substance: [^125I]SST-14: radio-labeled SST-14, a truncated version of the natural ligand SST-28; reference ligand of the SST5 assay
- Kd: 0.31 nM
